Experimental data reported in ChEMBL document CHEMBL4177706, “Exploiting a water network to achieve enthalpy-driven, bromodomain-selective BET inhibitors” (Bioorg Med Chem, 2018).

Assays:
[1] = Cytotoxicity against human HD-MB03 cells assessed as reduction in cell viability after 5 days by CellTiter-Glo assay; settings: HD-MB03, 120 h
[2] = tested on: NALM-6; assay: cells; settings: Homo sapiens, NALM-6, 120 h
[3] = Cytotoxicity against human NALM16 cells assessed as reduction in cell viability after 5 days by CellTiter-Glo assay; settings: NALM16, 120 h
[4] = tested on: LOUCY; assay: Cytotoxicity against human Loucy cells assessed as reduction in cell viability after 5 days by CellTiter-Glo assay; settings: 120 h
[5] = tested on: 697; assay: cells; settings: Homo sapiens, 697, 120 h

Measured: EC50

COc1cc(OC)c2c(=O)[nH]c(-c3cc(C)c(OCCO)c(C)c3)nc2c1 [APABETALONE]
> 5 µM: all assays above
